Chains of the proteins cited; added tags and fusions are not shown.
UniProt P20272, whole entry: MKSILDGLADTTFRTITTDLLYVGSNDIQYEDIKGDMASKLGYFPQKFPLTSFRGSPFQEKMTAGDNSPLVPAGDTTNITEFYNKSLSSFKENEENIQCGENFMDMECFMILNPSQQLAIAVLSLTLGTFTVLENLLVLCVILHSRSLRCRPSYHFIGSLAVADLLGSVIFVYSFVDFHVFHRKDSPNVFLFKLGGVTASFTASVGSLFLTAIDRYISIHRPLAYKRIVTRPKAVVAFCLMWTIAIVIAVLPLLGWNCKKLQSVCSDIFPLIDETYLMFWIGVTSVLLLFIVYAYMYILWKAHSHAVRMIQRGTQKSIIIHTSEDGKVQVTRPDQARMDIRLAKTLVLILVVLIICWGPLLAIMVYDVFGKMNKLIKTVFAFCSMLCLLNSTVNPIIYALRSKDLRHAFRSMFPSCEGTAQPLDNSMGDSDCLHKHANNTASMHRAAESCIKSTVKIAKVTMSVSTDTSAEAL

According to ChEMBL document CHEMBL5244233, “Overview of cannabidiol (CBD) and its analogues: Structures, biological activities, and neuroprotective mechanisms in epilepsy and Alzheimer's disease” (Eur J Med Chem, 2020):

Target: Cannabinoid receptor 1 (Rattus norvegicus, UniProt P20272)
Assay: Displacement of [3H]CP55940 from rat brain membrane CB1 receptor assessed as inhibition constant incubated for 90 mins
Type: cell membranes

SMILES: C=C(C)[C@@H]1CCC(C)=C[C@H]1c1c(O)cc(CCCCC)cc1O [CANNABIDIOL]
- Ki: > 10 µM
